# According to US10537571B2, “Pyrimidine FGFR4 inhibitors” (priority 2013, dated 2020):
# Experiments:
# Set-up in all cases: species or system nude mice
# HUH7 tumor xenografts = assay: In vivo efficacy in HUH7 hepatocellular carcinoma xenograft
# HEP3B tumor xenografts = assay: In vivo efficacy in HEP3B hepatocellular carcinoma xenograft
# JHH7 tumor xenografts = assay: In vivo efficacy in JHH7 hepatocellular carcinoma xenograft
structure (smiles),measurement,setting,value
"C=CC(=O)Nc1cc(N2CCN(CC)CC2)ccc1Nc1cc(N(C)C(=O)Nc2c(Cl)c(OC)cc(OC)c2Cl)ncn1 [Compound 108, N-(2-(6-(3-(2,6-Dichloro-3,5-dimethoxyphenyl)-1-methylureido)pyrimidin-4-ylamino)-5-(4-ethylpiperazin-1-yl)-phenyl)acrylamide]",sensitivity of xenograft model to compound,HUH7 tumor xenografts,intermediate sensitivity
same,sensitivity of xenograft model to compound,HEP3B tumor xenografts,most sensitive
same,sensitivity of xenograft model to compound,JHH7 tumor xenografts,least sensitive
